Measured values reported in patent publication US20120059036A1, “METHOD FOR REDUCING THROMBOCYTOPENIA AND THROMBOCYTOPENIA-ASSOCIATED MORTALITY” (priority 2008, published 2012).

System: patients experiencing ST-segment elevation myocardial infarction (STEMI)
Assay: MULTISTRATEGY safety analysis: bleeding, transfusion, thrombocytopenia and thrombocytopenia-associated mortality
Settings: At 30 d
Protocol: The inclusion criteria were (1) chest pain for longer than 30 minutes with an electrocardiographic ST-segment elevation of 1 mm or greater in two or more contiguous electrocardiogram leads, or with a new left bundle-branch block, and (2) admission either within 12 hours of symptom onset or between 12 and 24 hours after onset with evidence of continuing ischemia. The exclusion criteria included administration of fibrinolytics in the previous 30 days, major surgery within 15 days, and active bleeding or previous stroke in the last six months. Immediately after eligibility criteria were met and before the visualization of coronary arteries through angiography, the treating physician at each investigational site performed open-label assignments of study treatments via sealed envelopes.
This type of regimen is described in U.S. Pat. No. 6,770,660. Abciximab was administered in a 0.25 mg/kg bolus, followed by 0.125 μg/kg/min continuous infusion for 12 hours. The administration of both drugs began at first medical contact, before arterial sheath insertion. Heparin was given at 40 to 70 U/kg, targeting an activated clotting time of at least 200 seconds. Patients received aspirin (160-325 mg orally or 250 mg intravenously, followed by 80-125 mg/d orally indefinitely) and clopidogrel (300 mg orally and then 75 mg/d for at least three months).
The data for all patients with primary end-point events were reviewed by an independent adjudication committee whose members were blinded to treatment assignments. Events adjudication was performed separately by two members, and in case of disagreement, the opinion of the third member was obtained and the final decision taken by consensus. The committee was also responsible for the adjudication of all clinical events according to the Academic Research Consortium.^18
Discrete data were summarized as frequencies, and comparisons were made with the likelihood-ratio χ^2 test or Fisher exact test. Continuous data were expressed as mean (SD) or median and interquartile range according to their distribution; comparisons were made with a one-way analysis of variance or the Kruskal-Wallis test.

For `CCCCS(=O)(=O)N[C@@H](Cc1ccc(OCCCCC2CCNCC2)cc1)C(=O)O.Cl.O` [Tirofiban Plus Uncoated Stent], the Major bleeding was “(2.7) %”, the Minor bleedng was “(5.9) %” and the “Moderate thrombocytoperia (<100000 cells/mm^3)” value was “(0.5) %”. For the same molecule, the “Red blood cells transfusion ≧1 Units” value was “(4.8) %”, the “Red blood cells transfusion ≧2 Units” value was “(3.2) %” and the “Severe thrombocytoperia (<50000 cells/mm^3)” value was “(1.1) %”. The Major bleeding (number of patients) was 5 No, the Minor bleedng (number of patients) was 11 No and the “Red blood cells transfusion ≧1 Units” value (number of patients) was 9 No. The “Red blood cells transfusion ≧2 Units” value (number of patients) was 6 No.
